# Source: patent publication US20240307333A1, “ANTI-VIRAL THERAPEUTIC AGENTS AND USES THEREOF” (priority 2021, published 2024)
# Target: binding between SARS-CoV-2 Receptor Binding Domain (RBD) and Angiotensin Converting Enzyme 2 (ACE2) (Severe acute respiratory syndrome coronavirus 2, UniProt P0DTC2)
# Assay: biochemical
compound,measurement,value
O=S(=O)(O)CCS [sodium 2-mercaptoethane sulfonate],IC50,2700 µM
